## CycPeptMPDB entries from one study

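Conditions beyond the assay type are not listed; see the original paper. The list need not hold all peptides of the study. Entries at the database's floor value (log10 P of -10) are not listed.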

PAMPA is the parallel artificial membrane permeability assay, which has no cells and reads passive diffusion. P is given in units of 10^-6 cm/s (from log10 values with two decimals); larger means faster passage.

| structure (SMILES) | PAMPA (10^-6 cm/s) |
|---|---|
| CC(=O)N1CCC[C@H]1C(=O)N[C@@H]1C(=O)N[C@H](CC(C)C)C(=O)N(C)[C@@H](CC(C)C)C(=O)N[C@H](CC(C)C)C(=O)N(C)[C@H](CC(C)C)C(=O)N(C)[C@H](C)C(=O)N[C@@H](CC(C)C)C(=O)N2CCC[C@@H]2C(=O)O[C@@H]1C | 6 |
| CC(=O)N1CCC[C@H]1C(=O)N(C)[C@H](CC(C)C)C(=O)N[C@@H]1C(=O)N[C@H](CC(C)C)C(=O)N[C@@H](CC(C)C)C(=O)N(C)[C@H](CC(C)C)C(=O)N[C@@H](C)C(=O)N[C@@H](CC(C)C)C(=O)N2CCC[C@@H]2C(=O)O[C@@H]1C | 6 |
| CC(=O)N1CCC[C@H]1C(=O)N[C@@H]1C(=O)N(C)[C@H](CC(C)C)C(=O)N(C)[C@H](CC(C)C)C(=O)N(C)[C@H](CC(C)C)C(=O)N(C)[C@@H](CC(C)C)C(=O)N(C)[C@@H](C)C(=O)N[C@@H](CC(C)C)C(=O)N2CCC[C@@H]2C(=O)O[C@@H]1C | 8.3 |
| CC(=O)N1CCC[C@@H]1C(=O)N(C)[C@H](CC(C)C)C(=O)N[C@@H]1C(=O)N(C)[C@@H](CC(C)C)C(=O)N[C@H](CC(C)C)C(=O)N[C@H](CC(C)C)C(=O)N(C)[C@H](C)C(=O)N[C@H](CC(C)C)C(=O)N2CCC[C@@H]2C(=O)O[C@@H]1C | 0.68 |
| CC(=O)N1CCC[C@@H]1C(=O)N(C)[C@@H](CC(C)C)C(=O)N[C@@H]1C(=O)N(C)[C@H](CC(C)C)C(=O)N(C)[C@@H](CC(C)C)C(=O)N(C)[C@@H](CC(C)C)C(=O)N[C@@H](C)C(=O)N[C@@H](CC(C)C)C(=O)N2CCC[C@H]2C(=O)O[C@@H]1C | 3.9 |
| CC(=O)N1CCC[C@H]1C(=O)N(C)[C@@H](CC(C)C)C(=O)N[C@@H]1C(=O)N[C@@H](CC(C)C)C(=O)N[C@@H](CC(C)C)C(=O)N[C@H](CC(C)C)C(=O)N(C)[C@H](C)C(=O)N[C@@H](CC(C)C)C(=O)N2CCC[C@H]2C(=O)O[C@@H]1C | 2.3 |
| CC(=O)N1CCC[C@@H]1C(=O)N(C)[C@H](CC(C)C)C(=O)N[C@@H]1C(=O)N[C@H](CC(C)C)C(=O)N[C@H](CC(C)C)C(=O)N[C@H](CC(C)C)C(=O)N[C@@H](C)C(=O)N[C@@H](CC(C)C)C(=O)N2CCC[C@@H]2C(=O)O[C@@H]1C | 0.12 |
| CC(=O)N1CCC[C@@H]1C(=O)N(C)[C@H](CC(C)C)C(=O)N[C@@H]1C(=O)N[C@H](CC(C)C)C(=O)N(C)[C@H](CC(C)C)C(=O)N[C@H](CC(C)C)C(=O)N(C)[C@H](C)C(=O)N[C@H](CC(C)C)C(=O)N2CCC[C@H]2C(=O)O[C@@H]1C | 3.2 |
| CC(=O)N1CCC[C@@H]1C(=O)N(C)[C@@H](CC(C)C)C(=O)N[C@@H]1C(=O)N[C@H](CC(C)C)C(=O)N(C)[C@@H](CC(C)C)C(=O)N(C)[C@H](CC(C)C)C(=O)N(C)[C@H](C)C(=O)N[C@@H](CC(C)C)C(=O)N2CCC[C@@H]2C(=O)O[C@@H]1C | 6 |
| CC(=O)N1CCC[C@@H]1C(=O)N(C)[C@H](CC(C)C)C(=O)N[C@@H]1C(=O)N[C@H](CC(C)C)C(=O)N(C)[C@@H](CC(C)C)C(=O)N(C)[C@@H](CC(C)C)C(=O)N(C)[C@@H](C)C(=O)N[C@@H](CC(C)C)C(=O)N2CCC[C@H]2C(=O)O[C@@H]1C | 2.1 |
| CC(=O)N1CCC[C@H]1C(=O)N(C)[C@H](CC(C)C)C(=O)N[C@@H]1C(=O)N(C)[C@H](CC(C)C)C(=O)N(C)[C@@H](CC(C)C)C(=O)N(C)[C@H](CC(C)C)C(=O)N(C)[C@H](C)C(=O)N[C@@H](CC(C)C)C(=O)N2CCC[C@H]2C(=O)O[C@@H]1C | 3.4 |
| CC(=O)N1CCC[C@@H]1C(=O)N(C)[C@@H](CC(C)C)C(=O)N[C@@H]1C(=O)N(C)[C@H](CC(C)C)C(=O)N[C@@H](CC(C)C)C(=O)N(C)[C@H](CC(C)C)C(=O)N(C)[C@H](C)C(=O)N[C@@H](CC(C)C)C(=O)N2CCC[C@H]2C(=O)O[C@@H]1C | 4.9 |
| CC(=O)N1CCC[C@H]1C(=O)N[C@@H]1C(=O)N[C@H](CC(C)C)C(=O)N(C)[C@H](CC(C)C)C(=O)N(C)[C@H](CC(C)C)C(=O)N[C@@H](CC(C)C)C(=O)N(C)[C@H](C)C(=O)N[C@@H](CC(C)C)C(=O)N2CCC[C@@H]2C(=O)O[C@@H]1C | 2.1 |

Excerpt, the opening 2 entries:

| structure (SMILES) | PAMPA (10^-6 cm/s) |
|---|---|
| CC(=O)N1CCC[C@H]1C(=O)N[C@@H]1C(=O)N[C@H](CC(C)C)C(=O)N(C)[C@@H](CC(C)C)C(=O)N[C@H](CC(C)C)C(=O)N(C)[C@H](CC(C)C)C(=O)N(C)[C@H](C)C(=O)N[C@@H](CC(C)C)C(=O)N2CCC[C@@H]2C(=O)O[C@@H]1C | 6 |
| CC(=O)N1CCC[C@H]1C(=O)N(C)[C@H](CC(C)C)C(=O)N[C@@H]1C(=O)N[C@H](CC(C)C)C(=O)N[C@@H](CC(C)C)C(=O)N(C)[C@H](CC(C)C)C(=O)N[C@@H](C)C(=O)N[C@@H](CC(C)C)C(=O)N2CCC[C@@H]2C(=O)O[C@@H]1C | 6 |

Values of Kelly et al. 2021, doi:10.1021/jacs.0c06115, as listed in CycPeptMPDB.